Laboratory results from paper PMC11329725 (Nature Communications, 2024).

Molecular target: T1, His6-HDOB1 (human BRCA2 helical domain and OB fold 1, residues 2479-2807) (human, UniProt P51587 2479-2807)
T1 sequence: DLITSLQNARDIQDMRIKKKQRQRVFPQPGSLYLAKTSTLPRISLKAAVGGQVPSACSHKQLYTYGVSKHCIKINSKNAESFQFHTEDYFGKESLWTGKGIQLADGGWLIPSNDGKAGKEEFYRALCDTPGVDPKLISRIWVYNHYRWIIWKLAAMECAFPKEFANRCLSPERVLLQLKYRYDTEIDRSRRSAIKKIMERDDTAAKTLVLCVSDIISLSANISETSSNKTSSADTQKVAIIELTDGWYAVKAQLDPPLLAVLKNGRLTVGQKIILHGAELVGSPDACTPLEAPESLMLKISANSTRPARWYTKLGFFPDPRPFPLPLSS
Test: co-purification

B1: GST-DSS1 (wild type), co-expressed with His6-HDOB1 in E. coli (natural protein)
chain: MSEKKQPVDLGLLEEDDEFEEFPAEDWAGLDEDEDAHVWEDNWDDDNVEDDFSNQLRAELEKHGYKMETS
  binding result: binds
